The values below are quoted from earlier work in patent US8759324B2 (priority 2006, dated 2014).

For the data set the following is noted: intravenous 1.1 g of CP, at the peak CP levels; cited from earlier work.

4-hydroxycyclophosphamide: the 4-OHCP plasma level was 0.69 µg/mL.
